Consider six molecules from patent US20240279332A1 (Amgen, published 2024).

The target of assay [1] is T1, human TREM-1 (TrigGering Receptor Expressed on Myeloid cells 1) on cells (human, UniProt Q9NP99 21-234). Kind of assay: cell-based or functional assay.
The target in assay [2] is T2, biotinylated human TREM-1-His antigen (human, UniProt Q9NP99 21-205, biotinylated in-house, site not stated).
T2 construct: Soluble TREM-1; also called b-huTREM-1-His; Soluble TREM1
Kind of assay: limiting antigen assay, FACS on LumAvidin beads coated with 7.5 ng/mL biotinylated human TREM-1-His; antibody 5 ug/mL. The text has this: TREM-1 Antibody Relative Affinity Ranking by Limiting Antigen Assay: TREM1 hybridoma supernatants were affinity-ranked within the panel by their binding kinetics to soluble TREM-1 in a limiting antigen assay using LUMAVIDIN® beads (Luminex) on FACS. Briefly, in-house biotinylated human TREM-1-His antigen (b-huTREM-1-His) was serially diluted in FACS buffer and combined with an equal volume of LUMAVIDIN® beads (different uniquely-barcoded bead for each antigen concentration), resulting in a 5-point 2-fold serial dilution series starting from a final b-huTREM-1-His antigen concentration of 30 ng/mL. The antigen-bead mixtures were plated across 3 wells in a 96-well FACS plate, then incubated for 30 minutes at room temperature protected from light. Beads were then pelleted by centrifugation, supernatant was removed by flicking, and wells were washed twice with 200 μL/well of FACS buffer. The different beads were then resuspended, pooled, and diluted in STABILGUARD® Immunoassay Stabilizer (SurModics) to block non-specific binding. Normalized TREM-1 hybridoma supernatants were combined with an equal volume of bead mixture in a FACS plate at a final concentration of 5 μg/mL test antibody to 0.5 μL beads/well. The plates were then shaken and incubated overnight for ˜18 hours at room temperature. Beads were then pelleted by centrifugation, supernatant was removed by flicking, and wells were washed twice with 200 μL/well of FACS buffer. ALEXA FLUOR® 488 Goat anti-Human IgG Fc secondary detection antibody (Jackson ImmunoResearch) was added at 5 μg/mL to the plates, shaken, and incubated for 15 minutes at room temperature protected from light. Beads were washed with FACS buffer, pelleted by centrifugation, supernatant was removed by flicking, and washed once more with FACS buffer. The beads were then resuspended and run on the BD ACCURI™ C6 Flow Cytometer with Intellicyt […]® autosampler.
The antibody binding signal correlates with antibody affinity; the degree of antibody binding to the target antigen TREM-1 correlates with the measured fluorescent intensity and thus allows a relative comparison of affinities across the panel.

For the next assay, the target named is T3, cyno TREM-1 on cells (cynomolgus monkey, UniProt A0A2K5VHG8 21-233).
T3 construct: whole, on cells; On HEK293 cells co-transfected with DAP12, or native on cynomolgus PBMCs; also called cynomolgus TREM-1; TREM-1 receptor in cynomolgus monkey PBMCs
T3 sequence: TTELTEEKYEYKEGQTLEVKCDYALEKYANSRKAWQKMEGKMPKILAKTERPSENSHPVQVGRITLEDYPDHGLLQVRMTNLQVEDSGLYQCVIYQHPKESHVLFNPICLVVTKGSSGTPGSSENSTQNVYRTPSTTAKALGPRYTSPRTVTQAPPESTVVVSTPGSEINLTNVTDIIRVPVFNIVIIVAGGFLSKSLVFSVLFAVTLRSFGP
Kind of assay: FACS on HEK293 co-transfected with cyno TREM-1 and DAP12; hybridoma supernatant 2.5 ug/mL; geomean fold over irrelevant control antibody. On the procedure:
(§1) The TREM-1-specific antibodies identified in primary screening were evaluated for cross-reactivity to cynomolgus TREM-1, as well as specificity to TREM-1 and not DAP12. TREM-1 hybridoma supernatants were tested for binding to human or cyno TREM-1 transiently expressed on HEK293 cells by FACS (harvests 1-6) or by […]™ (harvests 8-9). […] The following day, transfected HEK293 cells were transferred into 96-well FACS plates at 50,000 cells/well and incubated with normalized hybridoma supernatants at a final concentration of 2.5 μg/mL for 1 hour at 4° C. Cells were then pelleted by centrifugation, supernatant was removed by flicking, and wells were washed twice with 200 μL/well of FACS buffer. 5 μg/mL ALEXA FLUOR® 647 Goat anti-Human IgG Fc (Jackson ImmunoResearch) secondary detection antibody and 2.5 μg/mL 7-aminoactinomycin-D (Sigma) viability stain were incubated with the cells for 15 minutes at 4° C. Cells were pelleted by centrifugation, supernatant was removed by flicking, and wells were washed once more with 200 μL/well of FACS buffer. TREM-1 hybridoma supernatants showing human TREM-1- or cyno TREM-1-specific binding was detected by FACS on the BD ACCURI™ 06 flow cytometer with Intellicyt autosampler. The data was reported as geomean (GM) fold over irrelevant control antibody binding.

The target of assay [3] is T1, human TREM-1 (TrigGering Receptor …). Kind of assay: FACS on HEK293 co-transfected with human TREM-1 and DAP12; hybridoma supernatant 2.5 ug/mL; geomean fold over irrelevant control antibody. On the procedure: as §1

Residue numbers refer to the chain shown, from its start.

B1: 30H2 (antibody, V domains shown)
VH: EVQVLESGGGLVQPGESLRLSCTASGFTFNAYAMSWVRQAPGKGLEWVSTISGSGSTTYYADSVKGRFTISRDNSKNTLDLQMNSLRAADTAVYYCAKVAGSNFFFDHWGQGTLVTVSS
VL: EIVMTQSPATLSVSPGERATLSCRASQSINSNLAWYQQKPGQAPRLLIYGAYTRATGIPDRFSGSGSGTEFTLTISSLQSEDFAVYYCQEFIMWPPWTFGLGTQVEIKR
notes: also called 30H2 (19330)
In the case of B1, the “Ab IC50-Human PBMC (Trial 1), TNFα release after PGLYRP1/PGN” value in assay [1] amounted to 6.9 pM. Further, in assay [2], the “Soluble TREM1 7.5 ng/mL (FACS Geomean)” value turned out to be 91700. Also, the “Cyno TREM1 GM Fold” value with cyno TREM-1 on cells was 76.9 fold. Also, in assay [3], the “Human TREM1 GM Fold” value is 108 fold.

B2: 57C10 (antibody, V domains shown)
VH: QVQLVQSGAEVKKPGASVKVSCKASGYTFTRYDINWVRQATGQGLEWMGWLNPNSGNTGQTQKFRGRVTMTRNTSINTAYMELSSLRSEDTAVYYCARGGYTSAWRWYFDLWGRGTLVTVSS
VL: DIQMTQSPSSLSASVGDRVTITCQASQDINNHLNWYQQKPGKAPKLLIYDVSNLETGVPSSFSGSGCGTDFTFTISSLQPEDIATYFCQQYDKLPLTFGGGTKVEIEG
notes: also called TREM1 antibody 57C10
As for B2, in assay [1], the “Ab IC50-Human PBMC (Trial 1), TNFα release after PGLYRP1/PGN” value amounted to 8.8 pM and the “Ab IC50-Human PBMC (Trial 2), TNFα release after PGLYRP1/PGN” value was 7.2 pM. Also, in assay [2], the “Soluble TREM1 7.5 ng/mL (FACS Geomean)” value was 28500. In the assay with cyno TREM-1 on cells, the “Cyno TREM1 GM Fold” value worked out at 2430 fold. Further, in assay [3], the “Human TREM1 GM Fold” value was determined as 1670 fold.

B3: 61B12 (antibody, V domains shown)
VH: QVQLVQSGAEVTKPGASVKVSCKASGYTFTRYDINWVRQATGQGLEWMGWMNPNSGNSGSVQKFRGRVTMTRNTSITTVYMELSSLRSDDTAVYYCARGGISSSWHWAFDIWGQGTMVTVSS
VL: B2 VL with D50G, V51A, S52Y, N53T, S61R, C67S, F87Y, E107K, G108R
notes: also called TREM1 antibody 61B12
On to B3, for which the “Ab IC50-Human PBMC (Trial 1), TNFα release after PGLYRP1/PGN” value in assay [1] stood at 8 pM. Further, the “Soluble TREM1 7.5 ng/mL (FACS Geomean)” value in assay [2] stood at 26900. Further, the “Cyno TREM1 GM Fold” value in the assay with cyno TREM-1 on cells is 2090 fold. In assay [3], the “Human TREM1 GM Fold” value stood at 1850 fold.

B4: 50A12 (antibody, V domains shown)
VH: EVQLVESGGGLVQPGGSLRLSCAASGFTFSSYWMSWVRQAPGKGLEWVANIKQDGSEEYYVDSVKGRFTISRDNAKNSLFLQMNSLRAEDTAVYYCARDYGDSFDYWGQGTLVTVSS
VL: DIQMTQSPSSVSASVGDRVTITCRASQGIRKWLAWYQQKPGRAPKLLIYAASRLQSGVPSRFSGSGSGTDFTLTISSLRPEDFATYYCLQAHGFPWTFGQGTKVEIKR
notes: also called TREM1 antibody 50A12
Turning to B4, in assay [1], the “Ab IC50-Human PBMC (Trial 1), TNFα release after PGLYRP1/PGN” value worked out at 3.3 pM and the “Ab IC50-Human PBMC (Trial 2), TNFα release after PGLYRP1/PGN” value came to 3.6 pM. In addition, in assay [2], the “Soluble TREM1 7.5 ng/mL (FACS Geomean)” value was 14600. The “Cyno TREM1 GM Fold” value in the assay with cyno TREM-1 on cells turned out to be 2780 fold. Also, in assay [3], the “Human TREM1 GM Fold” value is 2420 fold.

B5: 49A2 (antibody, V domains shown)
VH: EVQLVESGGGLVQPGGSLRLSCAASGFTFSSNWMSWVRQAPGKGLDWMASMKQDGSEIYYVDSVKGRFTISRDNAKNSLHLQMNSLRAEDTAVYYCVRGGWRFESWGQGALVTVSS
VL: EIVMTQSPATLSVSPGERATLSCRASQSVSSNLAWYQQKSGQAPRLLIYGASIRATGIPARVSGSGSGTEFTFTISSLQSEDFAVYYCQQYKNWPLTLGGGTKVEIKR
notes: also called 49A2 (19333)
As to B5, in assay [1], the “Ab IC50-Human PBMC (Trial 1), TNFα release after PGLYRP1/PGN” value is 3.1 pM and the “Ab IC50-Human PBMC (Trial 2), TNFα release after PGLYRP1/PGN” value was determined as 3.3 pM. The “Soluble TREM1 7.5 ng/mL (FACS Geomean)” value in assay [2] is 28300. In the assay with cyno TREM-1 on cells, the “Cyno TREM1 GM Fold” value turned out to be 2980 fold. Also, the “Human TREM1 GM Fold” value in assay [3] is 2220 fold.

B6: 66B8 (antibody, V domains shown)
VH: QVQLVQSGAEVKKPGASVKVSCKASGYTFTGYYMHWVRQAPGQGLEWMGWFKPNSGVTNYAQKFQGRVTMSRDTSISTAYMELSSLRSDDTAVYYCARAGYSTSWKDWFDPWGQGTLVTVSS
VL: DIQMTQFPSSVSASVGDRVTITCRASQGISRWLAWYQQKQGKAPKLLIYMVSSLQSGVPSRFSGSGSGTDFTLTISSLQPEDFATYYCQQSHNFPITFGQGTRLDIKR
notes: also called TREM1 antibody 66B8
In the case of B6, the “Ab IC50-Human PBMC (Trial 1), TNFα release after PGLYRP1/PGN” value in assay [1] amounted to 31.6 pM. In addition, the “Soluble TREM1 7.5 ng/mL (FACS Geomean)” value in assay [2] worked out at 23800. For the same molecule, the “Cyno TREM1 GM Fold” value in the assay with cyno TREM-1 on cells was determined as 1520 fold. In addition, in assay [3], the “Human TREM1 GM Fold” value is 1630 fold.
